# Measurements: PubChem BioAssay AID1768 (National Center for Advancing Translational Sciences (NCATS), 2009)
# By UniProt entry, the sequences of proteins in these tests, tags left out.
# UniProt O00255, whole entry: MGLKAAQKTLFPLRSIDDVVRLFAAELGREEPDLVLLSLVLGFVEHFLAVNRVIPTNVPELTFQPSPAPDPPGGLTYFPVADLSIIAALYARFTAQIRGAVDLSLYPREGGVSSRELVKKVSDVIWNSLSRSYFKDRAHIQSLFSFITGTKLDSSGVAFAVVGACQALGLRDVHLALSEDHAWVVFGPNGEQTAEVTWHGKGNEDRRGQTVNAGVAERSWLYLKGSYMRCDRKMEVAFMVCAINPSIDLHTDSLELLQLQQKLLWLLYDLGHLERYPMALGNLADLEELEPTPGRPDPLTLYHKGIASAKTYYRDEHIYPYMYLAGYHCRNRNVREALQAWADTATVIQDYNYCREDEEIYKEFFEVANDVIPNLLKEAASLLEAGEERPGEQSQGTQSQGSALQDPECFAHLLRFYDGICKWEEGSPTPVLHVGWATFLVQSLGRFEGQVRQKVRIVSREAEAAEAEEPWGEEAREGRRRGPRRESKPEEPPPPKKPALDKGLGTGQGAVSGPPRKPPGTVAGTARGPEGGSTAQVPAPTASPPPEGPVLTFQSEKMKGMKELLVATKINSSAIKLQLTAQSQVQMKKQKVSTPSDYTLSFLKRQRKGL
# UniProt Q03164, whole entry partner: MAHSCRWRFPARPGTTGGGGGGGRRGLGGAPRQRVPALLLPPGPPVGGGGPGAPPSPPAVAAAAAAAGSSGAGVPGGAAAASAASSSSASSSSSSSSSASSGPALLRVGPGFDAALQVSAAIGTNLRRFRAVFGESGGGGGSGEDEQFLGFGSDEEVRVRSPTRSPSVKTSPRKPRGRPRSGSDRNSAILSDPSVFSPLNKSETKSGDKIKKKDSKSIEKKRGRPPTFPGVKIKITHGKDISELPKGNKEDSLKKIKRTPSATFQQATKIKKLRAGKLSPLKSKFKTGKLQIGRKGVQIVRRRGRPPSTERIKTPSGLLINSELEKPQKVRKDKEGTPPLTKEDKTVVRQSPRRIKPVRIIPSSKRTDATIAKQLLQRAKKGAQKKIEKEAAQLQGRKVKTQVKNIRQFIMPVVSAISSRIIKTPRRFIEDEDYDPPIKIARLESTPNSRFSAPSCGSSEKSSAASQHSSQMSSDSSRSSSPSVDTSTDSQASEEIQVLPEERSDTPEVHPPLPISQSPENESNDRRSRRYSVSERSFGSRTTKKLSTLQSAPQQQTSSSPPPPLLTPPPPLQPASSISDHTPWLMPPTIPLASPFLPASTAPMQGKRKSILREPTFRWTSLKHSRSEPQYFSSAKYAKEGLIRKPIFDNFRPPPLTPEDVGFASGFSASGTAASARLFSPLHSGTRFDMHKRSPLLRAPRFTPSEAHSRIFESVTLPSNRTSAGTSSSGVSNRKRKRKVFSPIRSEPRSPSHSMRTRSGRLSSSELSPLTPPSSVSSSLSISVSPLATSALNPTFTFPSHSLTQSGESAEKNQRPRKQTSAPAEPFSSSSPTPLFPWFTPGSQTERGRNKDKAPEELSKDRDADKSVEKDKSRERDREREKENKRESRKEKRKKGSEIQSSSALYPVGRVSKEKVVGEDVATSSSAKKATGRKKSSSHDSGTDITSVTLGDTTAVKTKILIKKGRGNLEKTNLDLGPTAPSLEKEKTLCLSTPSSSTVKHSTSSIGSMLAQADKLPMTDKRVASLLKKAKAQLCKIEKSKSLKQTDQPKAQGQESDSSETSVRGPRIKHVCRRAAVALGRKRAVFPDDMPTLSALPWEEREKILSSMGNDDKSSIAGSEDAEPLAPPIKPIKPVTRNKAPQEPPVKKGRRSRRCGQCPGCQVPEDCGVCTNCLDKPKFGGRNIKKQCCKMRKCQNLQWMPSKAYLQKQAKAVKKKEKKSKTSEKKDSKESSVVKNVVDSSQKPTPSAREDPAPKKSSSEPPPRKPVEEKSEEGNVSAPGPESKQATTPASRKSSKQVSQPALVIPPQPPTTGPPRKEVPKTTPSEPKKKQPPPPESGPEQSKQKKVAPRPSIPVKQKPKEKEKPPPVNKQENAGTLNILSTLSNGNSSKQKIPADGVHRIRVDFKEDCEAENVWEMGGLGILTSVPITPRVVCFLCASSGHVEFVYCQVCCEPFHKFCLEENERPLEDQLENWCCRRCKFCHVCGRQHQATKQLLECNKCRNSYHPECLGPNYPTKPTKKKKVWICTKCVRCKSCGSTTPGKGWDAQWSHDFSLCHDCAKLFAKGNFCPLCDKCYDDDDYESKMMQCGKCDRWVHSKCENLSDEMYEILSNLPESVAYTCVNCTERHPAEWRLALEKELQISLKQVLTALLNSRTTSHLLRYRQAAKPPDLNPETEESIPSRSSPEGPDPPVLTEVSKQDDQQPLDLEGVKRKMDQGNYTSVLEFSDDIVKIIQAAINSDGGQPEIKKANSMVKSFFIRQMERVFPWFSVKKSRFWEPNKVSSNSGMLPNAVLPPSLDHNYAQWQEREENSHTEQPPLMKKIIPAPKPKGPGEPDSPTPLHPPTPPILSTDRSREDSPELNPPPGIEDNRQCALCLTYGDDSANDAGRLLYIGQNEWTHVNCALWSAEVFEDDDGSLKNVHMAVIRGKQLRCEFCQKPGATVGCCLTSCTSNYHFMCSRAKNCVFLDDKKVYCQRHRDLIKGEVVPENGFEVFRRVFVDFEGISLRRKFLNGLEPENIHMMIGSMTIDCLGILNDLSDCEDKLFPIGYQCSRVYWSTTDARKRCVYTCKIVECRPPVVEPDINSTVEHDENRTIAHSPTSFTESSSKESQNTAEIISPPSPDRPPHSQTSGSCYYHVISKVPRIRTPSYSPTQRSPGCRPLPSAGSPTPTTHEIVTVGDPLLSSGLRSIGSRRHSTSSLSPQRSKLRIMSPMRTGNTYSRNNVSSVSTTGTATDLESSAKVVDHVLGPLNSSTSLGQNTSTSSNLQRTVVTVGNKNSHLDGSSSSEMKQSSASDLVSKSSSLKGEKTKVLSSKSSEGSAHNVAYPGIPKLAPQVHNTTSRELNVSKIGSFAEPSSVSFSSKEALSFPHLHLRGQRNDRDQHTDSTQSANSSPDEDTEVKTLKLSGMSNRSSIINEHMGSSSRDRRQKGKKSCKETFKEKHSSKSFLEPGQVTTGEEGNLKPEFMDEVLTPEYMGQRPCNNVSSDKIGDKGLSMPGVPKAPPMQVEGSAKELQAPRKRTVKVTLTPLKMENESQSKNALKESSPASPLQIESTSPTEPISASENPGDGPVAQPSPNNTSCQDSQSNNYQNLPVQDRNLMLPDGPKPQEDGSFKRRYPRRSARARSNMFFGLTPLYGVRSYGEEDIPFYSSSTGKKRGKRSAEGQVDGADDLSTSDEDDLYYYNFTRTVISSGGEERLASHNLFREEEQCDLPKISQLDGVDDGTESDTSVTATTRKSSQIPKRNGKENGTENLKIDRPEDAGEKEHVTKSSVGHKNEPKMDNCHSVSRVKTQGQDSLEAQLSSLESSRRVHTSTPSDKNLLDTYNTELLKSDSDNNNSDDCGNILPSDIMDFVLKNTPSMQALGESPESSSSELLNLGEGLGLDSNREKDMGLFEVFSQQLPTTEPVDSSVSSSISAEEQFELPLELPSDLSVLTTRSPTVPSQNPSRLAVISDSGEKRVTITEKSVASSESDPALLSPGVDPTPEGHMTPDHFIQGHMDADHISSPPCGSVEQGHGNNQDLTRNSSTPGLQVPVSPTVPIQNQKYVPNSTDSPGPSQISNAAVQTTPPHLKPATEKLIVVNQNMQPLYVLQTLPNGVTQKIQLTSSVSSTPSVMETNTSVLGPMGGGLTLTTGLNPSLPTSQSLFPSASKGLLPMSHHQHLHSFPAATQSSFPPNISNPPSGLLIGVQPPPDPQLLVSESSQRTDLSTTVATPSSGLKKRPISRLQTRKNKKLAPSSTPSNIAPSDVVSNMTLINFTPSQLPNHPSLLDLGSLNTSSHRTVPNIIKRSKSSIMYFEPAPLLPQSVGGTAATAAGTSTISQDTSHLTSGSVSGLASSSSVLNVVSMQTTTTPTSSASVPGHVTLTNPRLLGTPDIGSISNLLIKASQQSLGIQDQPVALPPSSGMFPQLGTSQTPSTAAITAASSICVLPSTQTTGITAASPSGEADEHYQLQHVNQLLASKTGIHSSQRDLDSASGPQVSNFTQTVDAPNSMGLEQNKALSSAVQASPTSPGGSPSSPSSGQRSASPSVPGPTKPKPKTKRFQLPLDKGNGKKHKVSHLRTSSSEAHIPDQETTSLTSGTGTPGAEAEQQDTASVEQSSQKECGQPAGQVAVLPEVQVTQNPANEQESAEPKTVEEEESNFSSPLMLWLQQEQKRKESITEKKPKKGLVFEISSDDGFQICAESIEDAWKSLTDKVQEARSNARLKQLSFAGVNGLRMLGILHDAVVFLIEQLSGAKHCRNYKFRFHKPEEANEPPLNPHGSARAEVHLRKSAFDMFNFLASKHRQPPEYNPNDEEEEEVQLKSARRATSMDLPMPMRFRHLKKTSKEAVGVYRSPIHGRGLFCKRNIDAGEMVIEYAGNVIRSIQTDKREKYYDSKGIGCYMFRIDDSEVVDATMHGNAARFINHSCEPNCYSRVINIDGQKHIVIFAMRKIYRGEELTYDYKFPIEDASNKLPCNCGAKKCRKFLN
# The list shows a part of the results, in another mix than the full data. Results filed as inconclusive are left out. Activity calls are given as the source filed them. Calls come from the whole dose curve; as a rule, active = well fitted inhibition curve with a large enough effect in the polarisation, with a control signal flat (not every such curve was filed as active); inconclusive = small, poorly fitted or top-dose-only effect, or effect the other way, or a change in a side signal; inactive = no such curve, though single readings can be large or run the other way; the % refers to the polarisation.
# Target: Menin (Homo sapiens) (UniProt O00255)
# Assay: qHTS Assay for Inhibitors Targeting the Menin-MLL Interaction in MLL Related Leukemias: Competition With Texas Red Labeled MLL-derived Mutant Peptide; note: % of control where 0% means no effect
# Conditions: fluorescence polarization; at 61.6 µM (top of the series)
row,SMILES,"FP activity change, negative = inhibition"
1,COc1ccc(NC2CCN(C(=O)OC(C)(C)C)CC2)cc1,inactive: 0.964%
2,CN1CCN(CCOC(=O)C(O)(c2ccccc2)c2ccccc2)CC1,inactive: -8.53%
3,O=C(NCC1(N2CCOCC2)CCCCC1)c1cc(=O)[nH]c2ccccc12,inactive: -5.35%
4,COc1cc(C(=O)NCC2(N3CCCCC3)CCCCC2)ccc1OC(F)F,inactive: 3.78%
5,O=C(NCC1(N2CCCCC2)CCCCC1)c1cccc(C(F)(F)F)c1,inactive: 9.12%
6,O=C(NCC1(N2CCCCC2)CCCCC1)c1cccc([N+](=O)[O-])c1,inactive: 4.83%
7,CCN1CCC(Nc2ccc(Cl)cc2)CC1,inactive: -3.29%
8,N#CC1(Nc2ccccc2)CCN(CCc2ccccc2)CC1,inactive: -8.94%
9,O=C(NCC1(N2CCCCC2)CCCCC1)c1ccc(OC(F)F)cc1,inactive: -4.77%
10,CCCOc1ccc(C(=O)NCC2(N(C)C)CCCCC2)cc1OC,inactive: -12.9%
11,COc1cc(OC)c(C(=O)NCC2(N(C)C)CCCCC2)cc1OC,inactive: 12.7%
12,CN(C)c1cccc(C(=O)NCC2(N3CCCCC3)CCCCC2)c1,inactive: 17.1%
13,CC(C)c1ccc(NC2CCN(C(=O)OC(C)(C)C)CC2)cc1,inactive: -17.4%
14,CCOC(=O)N1CCC(Nc2ccc(OC)cc2)CC1,inactive: -0.743%
15,O=C(OC1CN2CCC1CC2)C1c2ccccc2Oc2ccccc21 (stereo not drawn),inactive: -14.2%
16,O=C(NCC1(N2CCOCC2)CCCCC1)c1cc2ccccc2o1,inactive: 0.343%
17,CSc1ccccc1C(=O)NCC1(N2CCCCC2)CCCCC1,inactive: -18.2%
18,O=C(NCC1(N2CCCCC2)CCCCC1)c1ccc(=O)[nH]c1,inactive: -0.792%
19,COc1ccc(C(=O)NCC2(N3CCCCC3)CCCCC2)c(OC)c1OC,inactive: -14.3%
20,CCOC(=O)N1CCC(Nc2cccc(C)c2)CC1,inactive: -7.16%
21,COc1cc(C(=O)NCC2(N(C)C)CCCCC2)ccc1OC(F)F,inactive: -0.706%
22,O=C(NCC1(N2CCCCC2)CCCCC1)c1ccc(F)cc1,inactive: -0.644%

row,SMILES,"FP activity change, negative = inhibition"
1,CCOC(=O)N1CCC(Nc2ccc(F)cc2)CC1,inactive: -15.7%
2,COc1ccc(NC2CCN(CCc3ccccc3)CC2)c(OC)c1,inactive: -7.15%
3,CN(C)c1ccc(C(=O)NCC2(N3CCCCC3)CCCCC2)cc1,inactive: 3.65%
4,CCN1CCC(Nc2cccc(F)c2)CC1,inactive: 4.38%
5,Fc1ccccc1NC1CCN(Cc2ccccc2)CC1,inactive: -1.43%
6,CN1CCC(Nc2ccc(Cl)cc2)CC1,inactive: -3.06%
7,CCC(CO)(C(=O)OC1CN2CCC1CC2)c1ccccc1 (stereo not drawn),inactive: -0.418%
8,COc1cc(OC)cc(C(=O)NCC2(N3CCOCC3)CCCCC2)c1,inactive: -2.87%
9,CCCOc1ccc(C(=O)NCC2(N(C)C)CCCCC2)cc1,inactive: 8.32%
10,CC(C)(C)OC(=O)N1CCC(Nc2ccccc2)CC1,inactive: -16.2%
11,O=C(O)C1(Nc2ccccc2)CCN(Cc2ccccc2)CC1,inactive: -13.3%
12,CCOc1ncccc1C(=O)NCC1(N2CCOCC2)CCCCC1,inactive: -0.737%
13,CN1CCC(Nc2ccc(F)c(Cl)c2)CC1,inactive: 1.01%
14,O=C(OC1CN2CCC1CC2)C1c2ccccc2C=Cc2ccccc21 (stereo not drawn),inactive: -2.69%
15,N/C(=N\O)c1c(N)no[n+]1[O-],inactive: -2.17%
16,CCOC(=O)N1CCC(Nc2ccc(C)cc2)CC1,inactive: -25%
17,COc1ccc(C(=O)NCC2(N3CCOCC3)CCCCC2)cc1OC,inactive: 3.74%
18,c1ccc(CN2CCC(Nc3ccccc3)CC2)cc1,inactive: -9.63%
19,CCCN1CCC(Nc2cc(OC)cc(OC)c2)CC1,inactive: -12.5%
20,CN(C)C1(CNC(=O)c2cccc(C#N)c2)CCCCC1,inactive: -7.56%
21,N#Cc1ccc(C(=O)NCC2(N3CCCCC3)CCCCC2)cc1,inactive: -11.7%
